Experimental data as given in paper PMC10616699.

What follows are substances tested against myofilaments of membrane-permeabilized human cardiomyocytes (human (endogenous in cardiomyocytes)) (assay: troponin exchange in permeabilized cardiomyocytes, read by phos-tag gel of cTnI; membrane-permeabilized cells of a highly phosphorylated human sample incubated with different concentrations of non-phosphorylated recombinant troponin complex; exchange as percent non-phosphorylated cTnI of total cTnI; exponential plateau curve fit (Ymax, k), n = 2).

| Substance | k (rate constant of the exponential plateau fit of exchange percentage against complex concentration) |
| --- | --- |
| recombinant human cardiac troponin complex with cTnT I79N (from UniProt P45379-6 1-288; P19429 1-210; P63316 1-161) | 22.2 |
| recombinant human cardiac troponin complex with cTnT R94C (from UniProt P45379-6 1-288; P19429 1-210; P63316 1-161) | 6.2 |
| recombinant human cardiac troponin complex with cTnT R278C (from UniProt P45379-6 1-288; P19429 1-210; P63316 1-161) | 3.1 |
| recombinant human cardiac troponin complex, wild-type (from UniProt P45379-6 1-288; P19429 1-210; P63316 1-161) | 15 |
